According to patent publication US7015343B2, “Sulphonated dehydrogenated sylvate, the preparation and use” (Shanghai Xingkang Pharmaceuticals Research & Development …, priority 2001, dated 2006):

System: KunMing mice
Settings: oral administration, 14 days observing

**Q.** Which LD50 does the source give for “Salts of Sulfodehydroabietic Acid with Zinc [NIPWZ]” here?
**A.** The LD50 was ≥ 8000 mg/kg.
